Literature values, collected in PMC3748600 (Chembiochem : a European journal of chemical biology, 2012).

Sequences of proteins named here, by UniProt entry; tags and fusion partners are left off.
UniProt P34972, whole entry: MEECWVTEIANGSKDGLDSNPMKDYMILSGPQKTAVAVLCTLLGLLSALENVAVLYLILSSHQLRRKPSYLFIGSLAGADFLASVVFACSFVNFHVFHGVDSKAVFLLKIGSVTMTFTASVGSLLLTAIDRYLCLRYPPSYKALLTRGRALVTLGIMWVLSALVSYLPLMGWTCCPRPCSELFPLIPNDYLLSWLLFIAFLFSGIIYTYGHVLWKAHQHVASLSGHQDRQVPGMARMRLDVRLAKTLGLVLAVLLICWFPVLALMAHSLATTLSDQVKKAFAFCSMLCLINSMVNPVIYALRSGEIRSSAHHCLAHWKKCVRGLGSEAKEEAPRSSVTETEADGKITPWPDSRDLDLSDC

Biological target: CB2 receptor (Homo sapiens, UniProt P34972)
Details: read-out: Ki for CB2; cited from earlier work

Compound: CCCCC/C=C\C/C=C\C/C=C\C/C=C\CCCC(=O)NCCO [Compound 1, N-arachidonoylethanolamine]
- Ki: 1900 nM
